Results on two compounds are retold here after PubChem BioAssay AID2101 (National Center for Advancing Translational Sciences (NCATS), 2009).

Each structure is given as a SMILES string. Where “and” joins values, the source holds several entries; their conditions need not be identical. Identical values can stand only once. This is a selection; strong and weak results do not stand in their true shares. Results filed as inconclusive are left out. Calls of active or inactive are those of the source. Calls follow the shape of the dose curve; as a rule, active = well fitted inhibition curve with a large enough effect; inconclusive = small, poorly fitted or top-dose-only effect, or effect the other way, or another doubt; inactive = no such curve, though single readings can be large or run the other way.

In this test the target is Lysosomal acid glucosylceramidase (Homo sapiens) (UniProt P04062). The experiment in a line: qHTS Assay for Inhibitors and Activators of N370S glucocerebrosidase as a Potential Chaperone Treatment of Gaucher Disease.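 Also: 0% = full enzyme activity and -100% = no enzyme basal.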 The conditions noted are these: N370S GC spleen homogenate, 4MU-glucoside fluorescence; at 59.4 µM (top of the series). The source says: NIH Chemical Genomics Center [NCGC]
NIH Molecular Libraries Probe Production Centers Network [MLPCN]
Assay Submitter (PI): Wei Zheng
Glucocerebrosidase (GC) catalyzes the hydrolysis of beta-glucocerebroside to glucose and ceramide in lysosomes. Mutations in the glucocerebrosidase gene result in Gaucher disease, an autosomal recessive lysosomal storage disorder. Many of the mutations encountered in patients with Gaucher disease are missense alterations that may cause misfolding, decreased stability and/or mistrafficking of this lysosomal protein. […] These inhibitors include iminosugar analogs and three non-iminosugar inhibitors identified from a previous HTS of 62,000 compounds with the wild type recombinant enzyme. […]
This is a fluorogenic enzyme assay with 4-methylumbelliferyl-beta-D-glucopyranoside as the substrate and N370S glucocerebrosidase from human spleen homogenate as the enzyme preparation. Upon the hydrolysis of this fluorogenic substrate, the resulting product, […] which can be detected by a standard fluorescence plate reader. […] The AC50 values were determined from concentration-response data modeled with the standard Hill equation. […]
(6) Detect the assay plate in a ViewLux plate reader (PerkinElmer) with Ex=365 nm and Em=440nm. […]
For the compound `O=[N+]([O-])C(Cl)(Cl)Cl`, the activity change, negative = inhibition was inactive: 4.9%.

Take `CN(CCCl)CCCl`: the activity change, negative = inhibition was inactive: -4.05% and inactive: 8%.
